Chains of the proteins cited; added tags and fusions are not shown.
UniProt P35372, whole entry, looked up: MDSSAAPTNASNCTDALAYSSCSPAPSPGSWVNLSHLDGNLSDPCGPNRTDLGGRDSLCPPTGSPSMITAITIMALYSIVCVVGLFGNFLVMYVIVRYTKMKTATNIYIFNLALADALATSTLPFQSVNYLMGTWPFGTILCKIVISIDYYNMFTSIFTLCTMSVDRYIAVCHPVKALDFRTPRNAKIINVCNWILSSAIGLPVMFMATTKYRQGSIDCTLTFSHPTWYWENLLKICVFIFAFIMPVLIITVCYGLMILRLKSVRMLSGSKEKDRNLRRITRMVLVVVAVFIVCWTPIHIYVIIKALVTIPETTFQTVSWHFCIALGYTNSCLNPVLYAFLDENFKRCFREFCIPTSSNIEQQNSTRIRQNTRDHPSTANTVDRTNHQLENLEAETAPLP
UniProt P41143, whole entry, looked up: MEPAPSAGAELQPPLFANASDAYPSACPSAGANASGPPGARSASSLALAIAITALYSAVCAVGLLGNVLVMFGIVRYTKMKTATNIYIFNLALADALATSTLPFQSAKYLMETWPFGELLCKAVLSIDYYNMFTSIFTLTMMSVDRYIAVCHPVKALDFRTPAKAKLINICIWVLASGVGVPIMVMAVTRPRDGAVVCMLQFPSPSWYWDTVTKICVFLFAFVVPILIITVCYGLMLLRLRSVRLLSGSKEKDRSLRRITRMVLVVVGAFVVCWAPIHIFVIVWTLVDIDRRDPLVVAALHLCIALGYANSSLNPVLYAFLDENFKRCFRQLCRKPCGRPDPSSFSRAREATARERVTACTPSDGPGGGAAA

The entries are a selection whose mix differs from that of the whole data set. Activity calls are given as the source filed them. Cut-off read from the data, not from the text of the source: active = activation above about 18%; inactive = the rest.
The molecules below were run against Mu-type opioid receptor (Homo sapiens) + Delta-type opioid receptor (Homo sapiens) (UniProt P35372+P41143) (assay: agonists of OPRM1-OPRD1 heterodimerization, primary screen, cell-based, luminescence (AID 504326;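 note: 0% = vehicle-treated cells and 100% = reference agonist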)). Conditions: cells, at 9.3 µM, hits give high values.
For `O=[N+]([O-])c1ccc2c(c1)nnn2O`, the activation was inactive: -0.02%. For `CC1CCCCN1C(=O)Cn1cnc2c1c(=O)n(C)c(=O)n2C` (stereo not given), the activation was inactive: -1.16%. In the case of `CN(C)C(=O)c1cc([N+](=O)[O-])cc2c1-c1c(cc([N+](=O)[O-])cc1[N+](=O)[O-])C2=O`, the activation is reported as inactive: 11.6%. `Cc1ccc2c(c1)C1CN(C)CCC1N2C(=S)NC(=O)c1ccc(Br)cc1` (stereo not given) was tested, and the activation was inactive: -4.92%. For `CCc1cccc(C)c1NC(=O)Cn1c(NCCO)nc2ccccc21`, the activation was inactive: -1.88%. In the case of `CC(C)CN(C(=O)Cn1c(C(F)(F)F)nc2ccccc21)C1CCS(=O)(=O)C1` (stereo not given), the activation is reported as inactive: -0.76%. In the case of `O=C(Cn1cnc2ccccc21)N/N=C/c1ccccc1[N+](=O)[O-]`, the activation is reported as inactive: -1.61%. For `N#CCCN(C(=O)COC(=O)C(O)(c1ccccc1)c1ccccc1)c1ccc(F)cc1`, the activation was inactive: -1.14%. In the case of `O=C(CSc1nc2ccccc2n1CC(=O)N1CCCC1)Nc1nccs1`, the activation is reported as inactive: -2.69%. `O=C(Nc1ccccc1)N1CCn2c1nc1ccccc12` was tested, and the activation was inactive: 1.83%. `COc1ccc(CNC(=O)[C@H](CCSC)NC(=O)N2CCn3c2nc2ccccc23)cc1` was tested, and the activation was inactive: -1.49%. `CCOC(=O)c1ccc(N2C(=O)CC(N3CCC(Nc4ccc(F)cc4)CC3)C2=O)cc1` (stereo not given) was tested, and the activation was inactive: -1.71%. With `Cn1c(=O)c2c(nc(CN3CCN(c4ccccc4F)CC3)n2CCN2CCOCC2)n(C)c1=O` the activation was inactive: -1.51%. For `Fc1ccc2c(c1)nnn2C1CCN(Cc2c(Cl)cccc2Cl)CC1`, the activation was inactive: 3.98%. In the case of `CC(C)[C@H](NC(=O)N1CCn2c1nc1ccccc12)C(=O)NCc1ccco1`, the activation is reported as inactive: -2.55%. `CN(C(=O)Cc1ccccc1)[C@@H]1CC[C@]2(CCCO2)C[C@H]1N1CCCC1` was tested, and the activation was inactive: -0.24%. `CCOP1(=S)c2c(C)nn(CCC#N)c2N=C(c2ccc(F)cc2)N1C` (stereo not given) was tested, and the activation was inactive: 0.15%. For `Cc1nn2c3ccccc3n(CCN3CCCCC3)c2nc1=O`, the activation was inactive: -2.21%. With `Cc1ccc2c(c1)C1CN(C)CCC1N2S(=O)(=O)c1ccc(C#N)cc1` (stereo not given) the activation was inactive: -3.58%. In the case of `FC(F)(F)c1ccc2c(c1)ncn2C1CCN(Cc2nnnn2C2CCCCC2)CC1`, the activation is reported as inactive: -0.25%. In the case of `CC1Cc2ccccc2N1C(=O)CSc1nc2ccccc2n1CC(=O)N1CCOCC1` (stereo not given), the activation is reported as inactive: -0.67%. In the case of `Nc1nc2ccccc2n1CCN1CCCC1`, the activation is reported as inactive: -2.1%. `CC(C)NC(=S)N1CCn2c(nc3ccccc32)C1` was tested, and the activation was inactive: -0.13%. With `O=C(CCCCCNC(=O)N1CCn2c1nc1ccccc12)NCc1ccc(Cl)cc1` the activation was inactive: -1.96%. With `CCCCNC(=O)Cn1c(=O)n(C)c2ccccc21` the activation was inactive: 0.33%. `O=C(Cn1cnc2c(NCc3ccccc3)ncnc21)NCCc1cc2ccccc2[nH]1` was tested, and the activation was inactive: -1.58%. For `NC(=O)Nc1ccc([As](=O)(O)O)cc1`, the activation was inactive: -3.08%. In the case of `O=C(Cn1cnc2ccccc21)N/N=C/c1cccc([N+](=O)[O-])c1`, the activation is reported as inactive: 0.93%. `Cc1nc2ccccc2n1C1CC(=O)N(N(C)C)C1=O` (stereo not given) was tested, and the activation was inactive: -3.26%. In the case of `CC(=O)Nc1nc2ccccc2n1CCN1CCOCC1`, the activation is reported as inactive: -0.23%. With `CCOC(=O)C1=C(Cn2cnc3ccccc32)NC(=O)NC1c1ccc(OC)cc1` (stereo not given) the activation was inactive: -1.03%. In the case of `CC(=O)OCCNC(=O)Cn1cnc2c1c(=O)n(C)c(=O)n2C`, the activation is reported as inactive: -2.62%. For `Cc1cccc(C)c1NC(=O)Cn1cnc2c(=O)n(C)c(=O)n(C)c21`, the activation was inactive: -1.72%. With `CCC(C)NC(=O)Cn1c(COc2ccc(Cl)cc2Cl)nc2ccccc21` (stereo not given) the activation was inactive: 2.62%. In the case of `CCC(C)[C@H](NC(=O)N1CCn2c1nc1ccccc12)C(=O)NCc1ccc(OC)cc1` (stereo not given in full), the activation is reported as inactive: 2.72%. `Cn1c(=O)[nH]c(=O)c2c1ncn2CCN1CCOCC1` was tested, and the activation was inactive: -0.29%. `Cn1c(=O)c2c(ncn2CC(=O)N(Cc2ccccc2)c2ccccn2)n(C)c1=O` was tested, and the activation was inactive: -4.11%. With `Cc1ccc(C(=O)Nc2nc3ccccc3n2CCN2CCCC2)cc1` the activation was inactive: 3.82%. For `CCN(CC)CCn1c(NCc2ccc(C)o2)nc2ccccc21`, the activation was inactive: -1.34%. `O=C(Nc1nc2ccccc2n1CCN1CCCC1)C1CCCCC1` was tested, and the activation was inactive: -1.5%. `CCOC(=O)c1ccccc1NC(=O)Cn1cnc2c1c(=O)n(C)c(=O)n2C` was tested, and the activation was inactive: 1.37%. In the case of `NC(=O)Cn1c(-c2nonc2N)nc2ccccc21`, the activation is reported as inactive: 0.25%. `COCCN1CCn2c(nc3cc(NC(=O)NC4CCCCC4)ccc32)C1` was tested, and the activation was inactive: 1.05%. With `Cc1ccc2c(c1)C1CN(C)CCC1N2C(=O)c1cn(-c2ccccc2)nc1-c1ccccc1` (stereo not given) the activation was inactive: 0.72%. `Nc1nonc1-c1nc2ccccc2n1CC(=O)N/N=C/c1ccc(-c2cccc(C(=O)O)c2)o1` was tested, and the activation was inactive: -2.18%. `O=C(O)COc1ccc([As](=O)(O)O)cc1[N+](=O)[O-]` was tested, and the activation was inactive: -1.2%. `Nc1ccccc1[As](=O)(O)c1ccccc1` was tested, and the activation was inactive: -1.89%. `O=C(Cn1cnc2ccccc21)N/N=C/c1ccc([N+](=O)[O-])cc1` was tested, and the activation was inactive: 4.39%. `CCOC(=O)CNC(=S)N1CCn2c(nc3ccccc32)C1` was tested, and the activation was inactive: -2.32%. For `Cc1nc2ccccc2n1CC(=O)NCc1ccccc1`, the activation was inactive: -0.3%. `CCOC(=O)C1CCN(C(=O)CC2C(=O)N(Cc3ccccc3)C(C)c3nc4ccccc4n32)CC1` (stereo not given) was tested, and the activation was inactive: -3.98%. In the case of `O=C(C1CCN(S(=O)(=O)c2cnc[nH]2)CC1)N1CCn2c1nc1ccccc12`, the activation is reported as inactive: -7.78%. For `Cn1c(=O)c2c(ncn2CC(=O)N/N=C/C=C/c2ccco2)n(C)c1=O`, the activation was inactive: -3.02%. `Cn1c(=O)c2c(ncn2CC(=O)N/N=C/c2cn[nH]c2-c2ccc(F)cc2)n(C)c1=O` was tested, and the activation was inactive: 0.45%. With `COc1cccc(C(=O)CSc2nc3ccccc3n2CC(=O)N(C(C)C)C(C)C)c1` the activation was inactive: -3.17%. In the case of `CC(C)Sc1nc2ccccc2n1CC(=O)NCc1ccc2c(c1)OCO2`, the activation is reported as inactive: -0.21%. For `Cn1c(=O)n(Cc2ccc(F)cc2)c(=O)c2c1nc1n2CCN1Cc1ccco1`, the activation was inactive: 1.47%. For `NNC(=O)Cn1c(COc2ccc(Cl)cc2)nc2ccccc21`, the activation was inactive: 4.38%. For `NC(=O)CC(NC(=O)Cc1cccc2ccccc12)c1ccc(NC2CCN(Cc3ccccc3)CC2)c([N+](=O)[O-])c1` (stereo not given), the activation was inactive: -0.26%. For `N=c1n(CCN2CCOCC2)c2ccccc2n1CC(O)COc1ccccc1` (stereo not given), the activation was inactive: -4.15%. With `Fc1ccc2c(c1)nnn2C1CCN(Cc2nnnn2C2CCCCC2)CC1` the activation was inactive: -0.69%. `COC(=O)[C@@H](Cc1ccccc1)NC(=O)Cn1cnc2c(SC)nc(N)nc21` was tested, and the activation was inactive: -2.76%. In the case of `COC(CNC(=O)CC1C(=O)N(Cc2ccccc2)C(C)c2nc3ccccc3n21)OC` (stereo not given), the activation is reported as inactive: -1.51%. With `CC(C(O)c1ccccc1)N(C)CCn1cnc2c1c(=O)n(C)c(=O)n2C` (stereo not given) the activation was inactive: -3.68%. In the case of `C[C@H](NC(=O)N1CCn2c1nc1ccccc12)C(=O)NCc1ccc2c(c1)OCO2`, the activation is reported as inactive: -2.35%. In the case of `CCN(Cc1ccccc1)C(=O)Cn1cnc2c1c(=O)n(C)c(=O)n2C`, the activation is reported as inactive: -2.37%. For `CCN(CC)CCn1c(=N)n(CC(O)COc2ccccc2)c2ccccc21` (stereo not given), the activation was inactive: -2.07%. With `COC(=O)[C@H](CCSC)NC(=O)Cn1cnc2c(SC)nc(N)nc21` the activation was inactive: -5.33%. For `O=C1NCN(c2ccccc2)C12CCN(c1nnnn1-c1ccccc1)CC2`, the activation was inactive: 0.32%. In the case of `CN(C)C(=O)Cn1c(SCC(=O)N2CCCc3ccccc32)nc2ccccc21`, the activation is reported as inactive: 0.56%. With `CS(=O)(=O)c1cc([N+](=O)[O-])c2no[n+]([O-])c2c1` the activation was inactive: 2.97%. For `Cc1ccc(/C=N\NC(=O)Cn2c(C)nc3ccccc32)o1`, the activation was inactive: -1.56%. With `Cn1c(=O)c2c(ncn2CC(=O)Nc2ccc3c(c2)OCO3)n(C)c1=O` the activation was inactive: 1.77%. With `O=C(Cn1cnc2ccccc21)N1CCc2ccccc21` the activation was inactive: 1.26%. For `Cn1c(=O)n(CC(=O)Nc2ccc(F)cc2)c2ccccc21`, the activation was inactive: -1.09%. In the case of `C/C(=N\NC(=O)Cn1c(-c2ccccn2)nc2ccccc21)c1cccc(O)c1`, the activation is reported as inactive: -1.9%. For `CCN1CCC(Nc2ccnc3cc(Cl)ccc23)CC1`, the activation was inactive: -1.83%. In the case of `CN(C(=O)Cn1c(Cl)nc2c1c(=O)n(C)c(=O)n2C)C1CCS(=O)(=O)C1` (stereo not given), the activation is reported as inactive: -0.22%. In the case of `CCOP1(=S)c2c(C)nn(CCC#N)c2N=C(c2ccccc2F)N1C` (stereo not given), the activation is reported as inactive: -2.57%. For `O=C(Nc1nc2ccccc2n1CCN1CCOCC1)c1ccc(Cn2cc([N+](=O)[O-])cn2)o1`, the activation was inactive: -1.52%. `N#Cc1ccc(NC(=O)Cn2c3[n+](c4ccc(C(F)(F)F)cc42)CCCCC3)cc1` was tested, and the activation was inactive: -1.75%. In the case of `CCC(C)[C@H](NC(=O)N1CCn2c1nc1ccccc12)C(=O)NCCc1ccc(OC)c(OC)c1` (stereo not given in full), the activation is reported as inactive: -1.2%. In the case of `O=P(Nc1nccs1)(Oc1ccccc1)Oc1ccccc1`, the activation is reported as inactive: 0.36%. For `Cc1ccccc1NC(=O)Cn1c(NCC(C)O)nc2ccccc21` (stereo not given), the activation was inactive: -2.55%. In the case of `CCc1nc2ccccc2n1CC(=O)Nc1cc(C)on1`, the activation is reported as inactive: -0.83%. For `CC(C)c1ccc(NC(=O)C2CC(=O)Nc3nc4ccccc4n32)cc1` (stereo not given), the activation was inactive: -0.93%. With `Cc1nc2ccccc2n1CC(=O)N/N=C/c1cccnc1` the activation was inactive: -0.98%. For `O=P(Nc1nccs1)(c1ccccc1)c1nc2ccccc2s1` (stereo not given), the activation was inactive: -6.28%. In the case of `CCN(CC)CCn1c(C)nc2ccccc21`, the activation is reported as inactive: -2.41%. With `Cn1c(=O)c2c(ncn2CC(=O)N2CCN(S(=O)(=O)c3ccc(Cl)cc3)CC2)n(C)c1=O` the activation was inactive: 0.43%.

Source: PubChem BioAssay AID504326 (The Scripps Research Institute Molecular Screening Center, 2011)
